Legend:
Cannabinoid receptor 1 [1] = target: T1, Cannabinoid receptor 1 (Homo sapiens, UniProt P21554); assay: Negative allosteric modulator activity at human CB1R expressed in CHO-K1 cells assessed as effect on CP55,940-induced inhibition of forskolin-induced cAMP accumulation preincubated for 30 mins followed by CP55,940 addition measured for 30 mins by HitHunter assay; assay type: functional, cell-based
Cannabinoid receptor 1 [2] = target: T1, Cannabinoid receptor 1; assay: Negative allosteric modulator activity at human CB1R expressed in CHO-K1 cells assessed as inhibition of CP55,940-induced beta-arrestin recruitment preincubated for 30 mins followed by CP55,940 addition measured for 90 mins by PathHunter assay; assay type: cell-based

Amino acid sequences for entries named in this document (tags omitted).
UniProt P21554, whole entry: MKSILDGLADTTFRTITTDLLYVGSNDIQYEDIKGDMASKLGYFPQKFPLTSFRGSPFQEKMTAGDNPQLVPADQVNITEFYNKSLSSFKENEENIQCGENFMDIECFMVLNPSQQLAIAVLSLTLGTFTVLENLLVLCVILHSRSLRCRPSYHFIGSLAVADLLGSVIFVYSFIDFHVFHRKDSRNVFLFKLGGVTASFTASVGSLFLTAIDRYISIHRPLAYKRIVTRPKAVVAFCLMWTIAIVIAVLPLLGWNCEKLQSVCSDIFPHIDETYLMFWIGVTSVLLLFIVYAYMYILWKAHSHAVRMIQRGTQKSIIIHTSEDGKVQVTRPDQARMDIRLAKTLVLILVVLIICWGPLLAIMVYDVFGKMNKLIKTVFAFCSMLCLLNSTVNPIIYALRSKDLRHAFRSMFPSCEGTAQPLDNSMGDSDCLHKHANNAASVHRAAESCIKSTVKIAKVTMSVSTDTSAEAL

O=C(Nc1ccc(Cl)cc1)Nc1cccc(-c2cccc(N3CCCC3)n2)c1
EC50 (Cannabinoid receptor 1 [1]): 70.8 nM
EC50 (Cannabinoid receptor 1 [2]): 3.84 nM
